Experimental data from PubChem BioAssay AID925 (National Center for Advancing Translational Sciences (NCATS), 2007).
The entries are a selection whose mix differs from that of the whole data set. Calls of active or inactive are those of the source. The call rests on the fitted dose curve; in most records, active means well fitted activation curve with a large enough effect; inconclusive means small, poorly fitted or top-dose-only effect; inactive means flat fitted curve, though single readings scatter.

Experiment: qHTS Assay for Modulators of Hemoglobin Beta Chain Splicing; further: 0% is about no effect
Conditions: HBB splicing reporter cell assay, EGFP reporter with mutant IVS2-654 intron, normalised to 500 nM splice-correcting PNA; at 46.1 µM (top of the series) unless noted
Description: NIH Chemical Genomics Center [NCGC]
NIH Molecular Libraries Screening Centers Network [MLSCN]
PI Name: Dr. Ryszard Kole
Modulation of Alternative Splicing as Therapy
Abnormal splicing is associated with a number of diseases, including cancer and genetic diseases such as cystic fibrosis, muscular dystrophy and beta-thalassemia. Alteration of disease associated splicing patterns provides a promising target for treatment. […] Mutations in the second intron of the beta-globin gene at positions are clinically relevant and cause mis-splicing which results in an out of frame gene product.
EGFP-654 and 705 HeLa Cells as screen system.
HeLa cell lines were stably transfected with a construct in which the EGFP (enhanced green fluorescent protein) cDNA was interrupted by the second intron of the beta-globin gene (IVS2-654). The ISV2 intron contains mutations which cause mis-splicing of EGFP and premature termination of EGFP which results in a nonfluorescent protein product. […] Expression of the transgene was driven by the CMV promoter. We concluded that a low molecular weight compound, which restored correct splicing of intron 2 would also generate functional EGFP protein, resulting in a fluorescent signal. Thus, the HeLa cells that express the EGFP-654 construct can be used for high throughput screening of a chemical library.
NCGC Assay Protocol Summary:
High Throughput Screening. Freshly thawed HeLa EGFP-654 cells were seeded in 5 ul of optimem media (Invitrogen) containing 2 % fetal calf serum (Hyclone) and 1x penicillin/streptomycin (Invitrogen) at a concentration of 500 cells per well in 1536-well plates. Cells were incubated overnight at 37C in 5% CO2. The next day, cells were treated with DMSO, 500 nM antisense ISV2 654 PNA control oligo, or library compound and allowed to grow at 37C in 5% CO2 for 2 days. The PNA oligo blocked the mutation site in the intron and allowed proper (wild type) splicing to occur, resulting in full length EGFP expression and also allowed for optimization of the assay parameters. Plates were read in the Acumen Explorer (TTP Labtech) using 488 nm laser excitation and 500-520 nm emission PMT filter in a 1 x […] capture mode. Fluorescnet Fluorescent objects ranging in size from […] were measured and the total peak GFP intensity for each well was used for data analysis.
Keywords: Thalassemia, beta-thalassemia, beta-globin, EGFP, ISV2 654, ISV2 705, SSO, PNA, antisense, splicing, MLSMR, MLSCN, NIH Roadmap, qHTS, NCGC

SMILES | activation
Cc1nc2ccc3ccccc3c2s1.O=[N+]([O-])c1cc([N+](=O)[O-])c(O)c([N+](=O)[O-])c1 | inactive: -0.321% [at 57.5 µM]
Cc1ccc([N+](=O)[O-])cc1[N+](=O)[O-] | inactive: -0.571%
O=[N+]([O-])c1cccc([N+](=O)[O-])c1 | inactive: 0.604%
Cc1ccc(C)c(NP(C)(=O)Oc2ccccc2)c1 (centres undefined) | inactive: -0.558% [at 9.22 µM]
O=[N+]([O-])[O-].[NH4+] | inactive: 1.97%
Cc1ccc(NP(C)(=O)Oc2ccccc2)c(C)c1 (centres undefined) | inactive: 0.146%
COc1ccccc1OP(C)(=O)Nc1ccc(C)cc1 (centres undefined) | inactive: -0.709%
CP(=S)(Nn1cnnc1)Oc1ccccc1 (centres undefined) | inactive: 4.51% [at 0.369 µM]
N1=C(c2nnc(-c3nn[nH]n3)nn2)NNN1 | inactive: -0.488% [at 9.22 µM]
CCOP(C)(=S)SCC(=O)NC(C)C(=O)O (centres undefined) | inactive: 5.19%
CP(=O)(NC(=O)Nc1ccccc1)Oc1ccccc1 (centres undefined) | inactive: 0.491%
N#[O+].[C-]#N.[C-]#N.[C-]#N.[C-]#N.[C-]#N.[Fe+2].[Na+].[Na+] | inactive: 0.329%
CP(=O)(Oc1ccccc1)N1CCOC1=O (centres undefined) | inactive: 0.723%
COc1ccccc1OP(C)(=O)Nc1c(C)n(C)n(-c2ccccc2)c1=O (centres undefined) | inactive: 0.866% [at 1.84 µM]
C/C1=C2N=C(/C=C3N=C(/C(C)=C4\[N-][C@@](C)([C@H]5N=C1[C@@](C)(CCC(=O)NC[C@H](C)OP(=O)([O-])O[C@@H]1[C@H](O)[C@H](n6cnc7cc(C)c(C)cc76)O[C@@H]1CO)[C@@H]5CC(N)=O)[C@](C)(CC(N)=O)[C@H]4CCC(N)=O)[C@@](C)(CC(N)=O)[C@@H]\3CCC(N)=O)C(C)(C)[C@@H]/2CCC(N)=O.[C-]#N.[Co+3] | inactive: 0.24% [at 20.6 µM]
Cc1nc2ccc3ccccc3c2o1.O=[N+]([O-])c1cc([N+](=O)[O-])c(O)c([N+](=O)[O-])c1 | inactive: -0.699%
COc1ccccc1OP(C)(=O)Nc1ccc(C)c(C)c1 (centres undefined) | inactive: -0.168% [at 57.5 µM]
CP(=O)(Nc1ccccn1)Oc1ccccc1 (centres undefined) | inactive: 0.857%
CP(=O)(Nc1ccccc1F)Oc1ccccc1 (centres undefined) | inactive: 1.91%
Cc1cccc([N+](=O)[O-])c1[N+](=O)[O-] | inactive: -1.17%
CCC(C)(OO)OOC(C)(CC)OO (centres undefined) | inactive: -0.158%
Cc1ccc([N+](=O)[O-])c([N+](=O)[O-])c1 | inactive: 0.392%
Cc1c([N+](=O)[O-])cccc1[N+](=O)[O-] | inactive: 0.378%
CP(=O)(Nc1ccc2c(c1)OCCO2)Oc1ccccc1 (centres undefined) | inactive: 0.477%
NNC(NN)NN.n1nc(-c2nn[nH]n2)n[nH]1 | inactive: 2.28% [at 9.22 µM]
[NH4+].[O-][Cl+3]([O-])([O-])[O-] | inactive: -0.815%
Cc1ccccc1NP(C)(=O)Nc1ccccc1C | inactive: 5.77% [at 0.369 µM]
CCOP(=O)(CC)OCC | inactive: 1.54%
CCOP(C)(=S)SCC(=O)NC(C)(CC)C(=O)O (centres undefined) | inactive: 0.131%
